logP (octanol/water) values, as collected for the OPERA models

Source: data files of OPERA 2.9 (Mansouri et al.), github.com/kmansouri/OPERA.

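These are experimental values that the OPERA curators gathered from public databases to train and test their QSAR models. One number stands for a compound and property, with no spread given. How each value was measured is not recorded, so precision varies. A value may pool stereoisomers or salt forms, and the file does not say which form was measured. Some entries may be limits or estimates that an upstream database listed as plain numbers.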

logP is the log10 of the octanol-water partition coefficient; higher is more lipophilic.
"n/a" marks a cell with nothing listed here.
"via" names the databases from which the curators took the value.

| compound | name | logP | via |
|---|---|---|---|
| CC(CNC1CCCCC1)OC(=O)c1ccccc1 (stereo not given) | Hexylcaine | 3.9 | PubChem |
| CCC(CO)(CO)COCC(CC)(CO)CO | 2,2'-(Oxydimethanediyl)bis(2-ethylpropane-1,3-diol) | 0.88 | eChemPortal |
| CC(C)CCCCCCCOCCCNCCCN | 1,3-Propanediamine, N-[3-(isodecyloxy)propyl]- | 2.7 | eChemPortal |
| O=[N+]([O-])c1cc(Cl)c(OC(F)(F)C(F)C(F)(F)F)cc1Cl (stereo not given) | n/a | 4.3 | eChemPortal |
| COc1cc(C)cc(O)c1 | 3-Methoxy-5-methylphenol | 0.9 | OCHEM |
| C=CCc1ccc(OC)c(OC)c1 | Methyleugenol | 2.57 | eChemPortal |
| CCCCCCCCOC(=O)CCCCCC | Octyl heptanoate | 6.11 | OCHEM |
| COC(C)OC | 1,1-Dimethoxyethane | 0.63 | eChemPortal |
| CC1=CC(C)C(C2OCC3COC(C4CCC(C)=CC4C)N32)CC1 (stereo not given) | n/a | 3.38 | eChemPortal |
| COC(C)(C)CC(C)=O | 4-Methoxy-4-methyl-2-pentanone | 0.46 | OCHEM, PubChem, eChemPortal |
| COc1cc(NC(=O)c2cc3ccccc3cc2O)c(OC)cc1Cl | n/a | 2.85 | eChemPortal |
| C=CC(F)(F)C(F)(F)C(F)(F)C(F)(F)C(F)(F)C(F)(F)C(F)(F)C(F)(F)F | 1H,1H,2H-Perfluoro-1-decene | 5.93 | 3M |
| Cc1ccc(Nc2ccc(O)c3c2C(=O)c2ccccc2C3=O)c(S(=O)(=O)[O-])c1.[Na+] | C.I. Acid Violet 43 | -0.66 | eChemPortal |
| C/C(=C\c1ccc(C)cc1)CO | 2-Propen-1-ol, 2-methyl-3-(4-methylphenyl)-, (2E)- | 2.39 | eChemPortal |
| CC(C)(O)C(=O)c1ccc(Cc2ccc(C(=O)C(C)(C)O)cc2)cc1 | n/a | 2.3 | eChemPortal |
| CC(C)[C@@H](C)/C=C/[C@@H](C)[C@H]1CC[C@H]2/C(=C/C=C3\C[C@@H](O)CC[C@@H]3C)CCC[C@]12C | Dihydrotachysterol | 7.5 | PubChem |
| NC(=O)Nc1cc(Nc2nc(N)nc(Cl)n2)ccc1/N=N/c1cc2c(S(=O)(=O)[O-])cc(S(=O)(=O)[O-])cc2cc1S(=O)(=O)[O-].[Na+].[Na+].[Na+] | C.I. Reactive Orange 12 | -5.5 | eChemPortal |
| CC(=O)OC1CC2CC1C1CCCC21 (stereo not given) | Octahydro-4,7-methano-1H-inden-5-yl acetate | 4.5 | eChemPortal |
| Nc1c(OCCOC(=O)Oc2ccccc2)cc(O)c2c1C(=O)c1ccccc1C2=O | n/a | 5.16 | eChemPortal |
| CC(C)OCCOC(=O)c1ccccc1O | 2-(Propan-2-yloxy)ethyl 2-hydroxybenzoate | 3.25 | eChemPortal |
| CC(C)(C)C(N)C(=O)O (racemic) | n/a | -1.77 | OCHEM |
| COC(=O)[C@H]1[C@H]2C[C@@H]3c4[nH]c5cc(OC)ccc5c4CCN3C[C@H]2C[C@@H](OC(=O)/C=C/c2cc(OC)c(OC)c(OC)c2)[C@@H]1OC | Rescinnamine | 3.5 | PubChem |
| Cc1cnc(/C(O)=N/CCc2ccc(S(N)(=O)=O)cc2)cn1.[HH].[Na+] | n/a | 0.5 | eChemPortal |
| CCOC(=O)CNC(=O)[C@@H]1C[C@H](C)CC[C@H]1C(C)C | n/a | 2.73 | eChemPortal |
| CC(C)(c1ccccc1)C(C)(C)c1ccccc1 | 1,1'-(1,1,2,2-Tetramethylethylene)dibenzene | 6.59 | eChemPortal |
| FC(F)(F)C(F)(F)Cl | Chloropentafluoroethane | 2.4 | PubChem |
| OCCOCCN1CCN(C(c2ccccc2)c2ccc(Cl)cc2)CC1 (stereo not given) | Hydroxyzine | 2.7 | PubChem |
| CCOc1ccc(C=O)cc1 | p-Ethoxybenzaldehyde | 2.09 | OCHEM |
| COc1nc(Nc2ccccc2)nc(Nc2ccc(/C=C/c3ccc(Nc4nc(Nc5ccccc5)nc(OC)n4)cc3S(=O)(=O)[O-])c(S(=O)(=O)[O-])c2)n1.[Na+].[Na+] | C.I. Fluorescent Brightener 213 | -0.979 | eChemPortal |
| O=S(=O)(O)CCCN1CCOCC1 | 4-Morpholinepropanesulfonic acid | -2.94 | eChemPortal |
| C=CC(C)=CCC=C(C)C | beta-Ocimene | 5.4 | eChemPortal |
| CCOCCOCCOC(C)=O | 2-(2-Ethoxyethoxy)ethyl acetate | 0.094 | eChemPortal |
| C=CCOC(=O)C(C)(C)OC(=O)c1cc([N+](=O)[O-])ccc1Cl | n/a | 3.5 | eChemPortal |

Extract of 4 entries:

| compound | name | logP | via |
|---|---|---|---|
| Cc1ccc(Nc2ccc(O)c3c2C(=O)c2ccccc2C3=O)c(S(=O)(=O)[O-])c1.[Na+] | C.I. Acid Violet 43 | -0.66 | eChemPortal |
| CCC(CO)(CO)COCC(CC)(CO)CO | 2,2'-(Oxydimethanediyl)bis(2-ethylpropane-1,3-diol) | 0.88 | eChemPortal |
| CC(C)CCCCCCCOCCCNCCCN | 1,3-Propanediamine, N-[3-(isodecyloxy)propyl]- | 2.7 | eChemPortal |
| C=CC(C)=CCC=C(C)C | beta-Ocimene | 5.4 | eChemPortal |